Patent EP2064211B1, “IMIDAZO[1,2-A]PYRIDINE HYDROXYMATE COMPOUNDS THAT ARE INHIBITORS OF HISTONE DEACETYLASE” (MEI Pharma, Inc., priority 2006, dated 2008)

Amino acid sequences for entries named in this document (tags omitted).
UniProt Q13547, whole entry: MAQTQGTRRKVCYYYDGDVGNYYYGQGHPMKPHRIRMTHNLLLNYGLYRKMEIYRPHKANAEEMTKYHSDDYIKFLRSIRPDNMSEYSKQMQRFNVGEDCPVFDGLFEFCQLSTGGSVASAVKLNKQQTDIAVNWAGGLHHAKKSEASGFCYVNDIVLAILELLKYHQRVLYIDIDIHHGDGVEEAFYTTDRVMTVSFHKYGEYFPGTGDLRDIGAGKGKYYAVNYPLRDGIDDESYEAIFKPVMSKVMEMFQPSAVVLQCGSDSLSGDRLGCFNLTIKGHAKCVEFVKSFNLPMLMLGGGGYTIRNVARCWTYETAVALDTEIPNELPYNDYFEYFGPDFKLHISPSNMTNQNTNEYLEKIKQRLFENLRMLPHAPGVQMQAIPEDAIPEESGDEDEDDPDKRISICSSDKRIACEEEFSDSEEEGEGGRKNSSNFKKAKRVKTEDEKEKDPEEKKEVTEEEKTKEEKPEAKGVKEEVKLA

Each compound was assayed against T1, HDAC1 enzyme (Homo sapiens, UniProt Q13547) (assay: In vitro HDAC assay for determination of IC50 values (BIOMOL fluorescent-based HDAC activity assay)). Conditions: recombinant GST-HDAC1, 500 uM Flur de lys substrate, room temperature 2 h; read-out: IC50 (HDAC 1).
T1 construct: Amplification of human HDAC1 coding region from this cDNA library was cloned separately into the baculovirus expression pDEST20 vector; made in house; host or cells: SF9 insect cells (baculovirus, pDEST20 vector)
Assay type: biochemical
Experimental: Human cDNA library was prepared using cultured SW620 cells. Amplification of human HDAC1 coding region from this cDNA library was cloned separately into the baculovirus expression pDEST20 vector (GATEWAY Cloning Technology, Invitrogen Pte Ltd). The pDEST20-HDAC1 construct was confirmed by DNA sequencing. Recombinant baculovirus was prepared using the Bac-To-Bac method following the manufacturer's instruction (Invitrogen Pte Ltd). Baculovirus titer was determined by plaque assay to be about 10^8 PFU/ml.
Expression of GST-HDAC1 was done by infecting SF9 cells (Invitrogen Pte Ltd) with pDEST20-HDAC1 baculovirus at MOI=1 for 48 h. Soluble cell lysate was incubated with pre-equilibrated Glutathione Sepharose 4B beads (Amersham) at 4°C for 2 h. The beads were washed with PBS buffer for 3 times. The GST-HDAC1 protein was eluted by elution buffer containing 50 mM Tris, pH8.0, 150mM NaCl, 1% Triton X-100 and 10mM or 20mM reduced Glutathione. The purified GST-HDAC1 protein was dialyzed with HDAC storage buffer containing 10mM Tris, pH7.5, 100mM NaCl and 3mM MgCl2. 20% Glycerol was added to purified GST-HDAC1 protein before storage at -80°C.
The assay has been carried out in 96 well format and the BIOMOL fluorescent-based HDAC activity assay has been applied. The reaction composed of assay buffer, containing 25 mM Tris pH 7.5, 137 mM NaCl, 2.7 mM KCl, 1 mM MgCl2, 1 mg/ml BSA, tested compounds, an appropriate concentration of HDAC1 enzyme, 500 uM Flur de lys generic substrate for HDAC1 enzyme and subsequently was incubated at room temperature for 2 h. Flur de lys Developer was added and the reaction was incubated for 10 min. Briefly, deacetylation of the substrate sensitizes it to the developer, which then generates a fluorophore. The fluorophore is excited with 360 nm light and the emitted light (460 nm) is detected on a fluorometric plate reader (Tecan Ultra Microplate detection system, Tecan Group Ltd.).
The analytical software, Prism 4.0 (GraphPad Software Inc) has been used to generate IC50 from a series of data. […]

Structure (SMILES)	IC50 [nM]
CCN(CCC(C)C)Cc1c(C)nc2cc(C=CC(=O)NO)ccn12 [Compound 49, 3-(3-{[Ethyl-(3-methyl-butyl)-amino]-methyl}-2-methyl-imidazo[1,2-a]pyridin-7-yl)-N-hydroxy-acrylamide]	20
CCC(C)CN(CC)Cc1c(C(C)(C)C)nc2cc(C=CC(=O)NO)ccn12 (stereo not drawn) [Compound 19, 3-(2-tert-Butyl-3-{[ethyl-(2-methyl-butyl)-amino]-methyl}-imidazo[1,2-a]pyridin-7-yl)-N-hydroxy-acrylamide]	260
CCN(CCC(C)C)Cc1c(CC(C)C)nc2cc(C=CC(=O)NO)ccn12 [Compound 60, 3-(3-{[Ethyl-(3-methyl-butyl)-amino]-methyl}-2-isobutyl-imidazo[1,2-a]pyridin-7-yl)-N-hydroxy-acrylamide]	20
